# Yeast mating assay B: variants of the scFv Ab-14

Source: Li et al. 2023 (doi:10.1038/s41467-023-39022-2), MIT Lincoln Laboratory and A-Alpha Bio; data file from the FLAb repository.

Antigen: PDVDLGDISGINAS, a 14-residue peptide of the SARS-CoV-2 spike HR2 region.

Ab-14 is the parent antibody, in scFv form: VH, then the linker GGGGSGGGGSGGGGS, then VL. The light chain is unchanged in all variants.
VH: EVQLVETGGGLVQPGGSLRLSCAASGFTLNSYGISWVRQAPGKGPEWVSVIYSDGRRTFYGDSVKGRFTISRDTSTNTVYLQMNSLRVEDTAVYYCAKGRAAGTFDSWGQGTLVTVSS
VL: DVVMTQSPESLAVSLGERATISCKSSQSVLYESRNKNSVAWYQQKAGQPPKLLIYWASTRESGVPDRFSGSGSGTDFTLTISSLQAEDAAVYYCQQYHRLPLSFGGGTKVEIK

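The starting antibody came from a phage panning campaign against this peptide. This is the validation round: designs drawn from the data on random variants, tested in the same kind of assay. Group labels follow the data file (Ctrl: baseline library sampled from a position-specific scoring matrix, with some repeated check sequences; GP: Gaussian process model; Gen: genetic algorithm; a sequence that several methods proposed may carry one label only). Affinity was read by AlphaSeq, a pooled yeast mating assay with surface-displayed partners. Mating (16 h, 30 °C) was followed by selection of diploids and sequencing of their barcodes. A regression on co-assayed BCL2-family reference pairs converts the normalised counts of each replicate to an apparent Kd. Mating was done six times.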

Each variant is given by its three heavy chain CDRs, as the data file delimits them; those of the parent are GFTLNSYGIS, VIYSDGRRTFYGDSVK, GRAAGTFDS. Scale: log10 of Kd in nM, estimated from mating counts; low values are strong binders. An entry "nd" has no value in the source: the pair was not observed among the diploids in that replicate. This suggests poor binding but is not conclusive. In the paper, a design with two or fewer of six values counts as a poor binder. Of ten entries with the parent sequence, four were seen in most replicates (averages 0.34 to 2.37), three in one and three in none, so single entries are noisy. Some sequences occur more than once in the pool; their replicates are listed entry by entry, parted by semicolons. Three control strains display no target. For all heavy chain designs, 1% of the pairings with them gave a signal, with a median of 2.08 and one signal in twenty below 0.84, so weak values seen in few replicates may be background. Also given: how often the same scFv was detected with the empty control strains, with their mean in brackets. The range of this assay differs from that of the first round, and the authors advise against merging the two.

CDR-H1	CDR-H2	CDR-H3	group	log10 Kd (nM) by replicate	empty controls
GFTLNSYGIS	VIYSDGRRTFYGDSVR	GAAAGTFDS	Ctrl	nd nd nd 0.29 1.55 0.72	0 of 18
GFTLNSYGIS	VIYSDGRRTFYGDSVK	GRAPGTFNS	Ctrl	nd nd nd nd nd nd	0 of 18
GFTLNMYGIS	VIYSDGRRTFYGDSVK	GRAAHTFDS	Ctrl	nd nd nd nd nd nd	0 of 18
GFNLNSYGIS	VIYSDGYRTFYGDSVK	GRAAGTFDW	Ctrl	nd nd nd nd nd nd	0 of 18
GITLNSYGYS	VIYSDGRRTFYGDSVK	GRAQGTQLS	Ctrl	nd nd nd nd 3.00 nd	1 of 18 (1.77)
GFNLNSYGIS	VIYSDGRRTFYGDSVK	GEAAGTFDS	Ctrl	0.68 0.45 0.82 0.84 0.54 0.53	0 of 18
GFTLNSYGIS	VIYSDGRRTFYSDSVK	GRAAGTFDH	Ctrl	nd 2.43 nd nd 0.81 1.16	0 of 18
GFMLNSYGIS	VIYSDGRRTAYGDSVK	GRAAGTFDS	Ctrl	0.55 0.54 0.64 0.60 0.40 0.61	0 of 18
GVALNDYGIS	VIYSDGRRTAYGDSVK	GRAAGTFDS	Ctrl	1.14 0.75 0.68 0.61 0.53 1.08	1 of 18 (4.16)
GDTLNSYGIS	VIYEDGRRAAYGDSVK	GRAQGTFDS	Ctrl	nd nd nd nd nd nd	1 of 18 (1.61)
GFTLNSYGIS	VIYSDGRRTFYGDSVK	DRPAGTFDS	Ctrl	nd nd nd nd nd nd	0 of 18
GFTLNSYGIS	VIYSDGRRTFYEDSVD	DRYTGTFHS	Ctrl	nd nd nd nd nd nd	0 of 18
GFTVNSHGIS	VIYSDGRRTFYGDSVK	GRAAGTFDS	Ctrl	nd nd nd nd nd nd	0 of 18
TFDLNEYGIS	VIYSDGRRTFYGDSVK	GRAAVTFDS	Ctrl	nd nd nd nd nd nd	0 of 18
GRTLNSYGIS	VIYSDGRRTFYADSVK	GRAAVTFDS	Ctrl	nd nd nd nd nd nd	0 of 18
GFNLNSYGIS	VIYSDGRRTFYGDSVK	GQEAGTFDS	Ctrl+GP_Gen	nd -0.66 -0.23 -0.06 -0.38 -0.06; 0.87 0.45 0.22 -0.05 0.42 0.57	1 of 36 (3.10)
GFDLNSYGIS	VIYSDGRRTFYGDSVK	GAAAGTFDS	Ctrl	1.11 0.53 0.77 0.54 0.82 1.09	1 of 18 (2.48)
GFCLNSYGIS	VIYSDGRRNFYGDSVK	GRAAGTFDI	Ctrl	nd nd nd nd nd nd	0 of 18
GFTINSYGIS	VIYSDGRRTFYGDSVK	GRAALTFDS	Ctrl	nd nd nd nd nd nd	0 of 18
GFTLNSYGIS	VIYSDGRRTFYGDSVK	GRNAGTFPS	Ctrl	nd nd nd nd nd nd	0 of 18
GFDMNSYGIS	VIYSDGRRTFYGDSVK	GENAGTFDS	Ctrl	1.52 1.79 1.24 1.22 2.19 1.60	0 of 18
GFTLNSYGIS	VIYSDGRRTFYVDSVK	GKAAGTFDS	Ctrl	nd nd nd 2.15 2.72 nd	0 of 18
GFNLNSYGIS	VIYSDGYRTFYGDSVK	AREMFTFDS	Ctrl	nd nd nd nd nd 2.07	0 of 18
GFDLNSYGIS	VIYSDGRRTFYGDSVK	GRCQGTFDS	Ctrl	nd nd nd nd nd 3.21	0 of 18
GFELNSYGIS	VIYSDGSRTFYGDSVK	GANAGTFDS	Ctrl	nd 1.94 2.00 1.59 nd nd	0 of 18
GFTLNSYGIS	VIYSDGKRTFYGDSVK	GRNATTFDS	Ctrl	nd nd nd nd nd nd	0 of 18
GFTLNQYGIS	VIYSDGQRTFYGDKVK	GRAADTFDD	Ctrl	nd nd nd nd nd nd	0 of 18
GFRLNSYGIS	VIYSDGRRTFYGDSVK	GRAALTFDS	Ctrl	nd nd nd nd nd nd	0 of 18
LFTLNSYGIS	VIYADGRRTFYGDSVK	GRIAGTFDS	Ctrl	nd nd nd nd 0.38 nd	0 of 18
GFNLNSYGIS	VIYSDGQRTFYGDSVK	GRAAGTFSS	Ctrl	nd nd nd nd nd nd	0 of 18
GFTLSSYGIS	VIYSDGRRTFYGDSVK	GRAALTFDS	Ctrl	nd nd nd nd nd nd	0 of 18
GFTLDQYGIS	VIYSDGRRTFYGDSVK	HNIAGTSDS	Ctrl	nd nd nd nd nd nd	0 of 18
GFTLNSYGIS	VIYSDGRKTFYGDSVK	GAEAGTFDS	Ctrl	1.43 0.73 1.47 2.00 1.06 1.60	0 of 18
GFTLNSYGIS	VIYSDGRRTFYQDSVK	GRLAGTFDW	Ctrl	nd nd nd nd nd nd	0 of 18
GFTLNSYGIS	VIYSDGRRTFYDDSVK	GTAAGEFKS	Ctrl	nd nd nd nd nd nd	0 of 18
KFTLKSYGIS	VIYSDGRRTAYGDSVK	GRASGTFDK	Ctrl	nd nd nd nd nd nd	0 of 18
GFTLNSYGIS	VIYSDGRRQFYGDSVK	GRAIGTFVS	Ctrl	nd nd nd nd nd nd	0 of 18
GFTLNEYGIS	VIYADGRRTFYGDSVK	GRAAATFDS	Ctrl	nd 1.64 nd nd nd 1.68	0 of 18
GFTLNSYGIS	VIYSDGRRTFYQDSVK	GRAAGTFCS	Ctrl	nd nd nd nd nd nd	0 of 18
GFTLNSYGIS	VIYSDGRRTFYEDSVK	GDFAGTFDS	Ctrl	nd nd nd nd nd nd	0 of 18
GFTLNSYGIS	VIYSDGQRTSYHDEVK	GRAAGTFDS	Ctrl	nd 2.45 nd 2.42 3.58 2.47	1 of 18 (2.43)
GQNLNSYGIT	VIYSDGRRTFYQDSVK	GRIAGTFDT	Ctrl	2.98 0.78 0.81 0.48 1.24 1.07	0 of 18
GFTLNSYGIS	VIYSDGRRTFYQDSVK	GTAAGTFFL	Ctrl	nd nd nd 2.02 nd 1.94	0 of 18
GFALNSYGIS	VIYADGRRTFYGDSVK	RRAAGTFDS	Ctrl	nd nd nd nd nd nd	0 of 18
GFTLNSYGIS	VIYSDGRRTFYHDSVK	GRAIGTFDS	Ctrl	nd nd nd nd nd nd	0 of 18
GFDLNDYGIS	VIYSDGRRTAYGDEVK	GRAAGTFDS	Ctrl	nd 1.68 nd 1.86 2.52 2.31	0 of 18
GFTLNEYGIS	VIYSDGRRTFYSDSVK	GRPSGLFDS	Ctrl	nd 1.94 nd nd nd nd	0 of 18
GFTLNSYGIS	VIYSDGLRTFYGDSVK	GRIAGTFDS	Ctrl	1.60 1.74 1.85 1.20 1.28 2.84	1 of 18 (1.27)

A selection of 8 entries from above:

CDR-H1,CDR-H2,CDR-H3,group,log10 Kd (nM) by replicate,empty controls
GFTLNSYGIS,VIYSDGRRTFYVDSVK,GKAAGTFDS,Ctrl,nd nd nd 2.15 2.72 nd,0 of 18
GITLNSYGYS,VIYSDGRRTFYGDSVK,GRAQGTQLS,Ctrl,nd nd nd nd 3.00 nd,1 of 18 (1.77)
TFDLNEYGIS,VIYSDGRRTFYGDSVK,GRAAVTFDS,Ctrl,nd nd nd nd nd nd,0 of 18
GFTLNSYGIS,VIYSDGRRTFYGDSVR,GAAAGTFDS,Ctrl,nd nd nd 0.29 1.55 0.72,0 of 18
GFDMNSYGIS,VIYSDGRRTFYGDSVK,GENAGTFDS,Ctrl,1.52 1.79 1.24 1.22 2.19 1.60,0 of 18
GFCLNSYGIS,VIYSDGRRNFYGDSVK,GRAAGTFDI,Ctrl,nd nd nd nd nd nd,0 of 18
GFNLNSYGIS,VIYSDGRRTFYGDSVK,GQEAGTFDS,Ctrl+GP_Gen,nd -0.66 -0.23 -0.06 -0.38 -0.06; 0.87 0.45 0.22 -0.05 0.42 0.57,1 of 36 (3.10)
GFTLNSYGIS,VIYSDGRRTFYEDSVD,DRYTGTFHS,Ctrl,nd nd nd nd nd nd,0 of 18